Data on six compounds can be found in ChEMBL document CHEMBL1154826, “Dual-action lipophilic iminosugar improves glycemic control in obese rodents by reduction of visceral glycosphingolipids and buffering of carbohydrate assimilation” (J Med Chem, 2010).

Chains of the proteins cited; added tags and fusions are not shown. Lines headed by an entry give the natural chain unless they say otherwise; changes in a name come on top.
UniProt P35573: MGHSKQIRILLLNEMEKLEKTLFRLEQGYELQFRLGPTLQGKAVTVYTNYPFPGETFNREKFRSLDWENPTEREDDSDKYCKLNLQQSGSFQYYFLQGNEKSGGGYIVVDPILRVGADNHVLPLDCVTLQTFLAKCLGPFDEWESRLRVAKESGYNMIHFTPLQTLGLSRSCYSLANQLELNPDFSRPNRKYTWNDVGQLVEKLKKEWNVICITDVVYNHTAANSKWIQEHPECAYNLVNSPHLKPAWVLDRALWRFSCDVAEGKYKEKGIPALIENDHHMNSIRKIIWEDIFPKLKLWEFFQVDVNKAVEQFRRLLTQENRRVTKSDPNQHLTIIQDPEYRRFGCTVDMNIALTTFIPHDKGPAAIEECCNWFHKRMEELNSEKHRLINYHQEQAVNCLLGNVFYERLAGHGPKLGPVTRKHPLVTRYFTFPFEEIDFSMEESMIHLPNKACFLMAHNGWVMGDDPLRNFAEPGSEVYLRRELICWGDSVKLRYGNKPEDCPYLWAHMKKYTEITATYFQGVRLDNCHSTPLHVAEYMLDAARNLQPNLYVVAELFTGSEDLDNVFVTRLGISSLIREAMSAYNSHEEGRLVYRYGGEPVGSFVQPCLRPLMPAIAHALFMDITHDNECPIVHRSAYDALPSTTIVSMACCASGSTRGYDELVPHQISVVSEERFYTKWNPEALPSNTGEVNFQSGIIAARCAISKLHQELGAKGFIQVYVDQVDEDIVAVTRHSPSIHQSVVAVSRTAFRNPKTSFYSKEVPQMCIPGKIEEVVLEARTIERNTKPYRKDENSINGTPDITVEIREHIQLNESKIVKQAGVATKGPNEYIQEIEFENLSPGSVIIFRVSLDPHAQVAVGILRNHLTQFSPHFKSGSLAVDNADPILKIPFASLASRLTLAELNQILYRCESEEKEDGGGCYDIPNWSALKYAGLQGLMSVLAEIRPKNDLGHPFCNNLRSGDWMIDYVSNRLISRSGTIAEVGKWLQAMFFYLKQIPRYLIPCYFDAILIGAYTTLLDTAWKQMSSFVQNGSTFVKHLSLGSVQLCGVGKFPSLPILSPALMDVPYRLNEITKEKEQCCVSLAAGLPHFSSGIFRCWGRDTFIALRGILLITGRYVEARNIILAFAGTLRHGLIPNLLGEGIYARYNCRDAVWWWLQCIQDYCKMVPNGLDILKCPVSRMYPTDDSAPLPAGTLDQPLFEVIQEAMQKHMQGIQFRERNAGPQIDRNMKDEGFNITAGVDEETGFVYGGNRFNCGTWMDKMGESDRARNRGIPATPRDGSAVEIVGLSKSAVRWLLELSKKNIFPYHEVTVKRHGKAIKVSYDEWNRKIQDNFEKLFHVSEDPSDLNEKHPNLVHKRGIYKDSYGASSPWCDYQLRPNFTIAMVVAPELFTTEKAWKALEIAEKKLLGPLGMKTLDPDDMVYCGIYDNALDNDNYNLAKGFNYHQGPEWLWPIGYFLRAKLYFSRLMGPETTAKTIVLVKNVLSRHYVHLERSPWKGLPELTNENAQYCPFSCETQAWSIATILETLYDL
UniProt O43451: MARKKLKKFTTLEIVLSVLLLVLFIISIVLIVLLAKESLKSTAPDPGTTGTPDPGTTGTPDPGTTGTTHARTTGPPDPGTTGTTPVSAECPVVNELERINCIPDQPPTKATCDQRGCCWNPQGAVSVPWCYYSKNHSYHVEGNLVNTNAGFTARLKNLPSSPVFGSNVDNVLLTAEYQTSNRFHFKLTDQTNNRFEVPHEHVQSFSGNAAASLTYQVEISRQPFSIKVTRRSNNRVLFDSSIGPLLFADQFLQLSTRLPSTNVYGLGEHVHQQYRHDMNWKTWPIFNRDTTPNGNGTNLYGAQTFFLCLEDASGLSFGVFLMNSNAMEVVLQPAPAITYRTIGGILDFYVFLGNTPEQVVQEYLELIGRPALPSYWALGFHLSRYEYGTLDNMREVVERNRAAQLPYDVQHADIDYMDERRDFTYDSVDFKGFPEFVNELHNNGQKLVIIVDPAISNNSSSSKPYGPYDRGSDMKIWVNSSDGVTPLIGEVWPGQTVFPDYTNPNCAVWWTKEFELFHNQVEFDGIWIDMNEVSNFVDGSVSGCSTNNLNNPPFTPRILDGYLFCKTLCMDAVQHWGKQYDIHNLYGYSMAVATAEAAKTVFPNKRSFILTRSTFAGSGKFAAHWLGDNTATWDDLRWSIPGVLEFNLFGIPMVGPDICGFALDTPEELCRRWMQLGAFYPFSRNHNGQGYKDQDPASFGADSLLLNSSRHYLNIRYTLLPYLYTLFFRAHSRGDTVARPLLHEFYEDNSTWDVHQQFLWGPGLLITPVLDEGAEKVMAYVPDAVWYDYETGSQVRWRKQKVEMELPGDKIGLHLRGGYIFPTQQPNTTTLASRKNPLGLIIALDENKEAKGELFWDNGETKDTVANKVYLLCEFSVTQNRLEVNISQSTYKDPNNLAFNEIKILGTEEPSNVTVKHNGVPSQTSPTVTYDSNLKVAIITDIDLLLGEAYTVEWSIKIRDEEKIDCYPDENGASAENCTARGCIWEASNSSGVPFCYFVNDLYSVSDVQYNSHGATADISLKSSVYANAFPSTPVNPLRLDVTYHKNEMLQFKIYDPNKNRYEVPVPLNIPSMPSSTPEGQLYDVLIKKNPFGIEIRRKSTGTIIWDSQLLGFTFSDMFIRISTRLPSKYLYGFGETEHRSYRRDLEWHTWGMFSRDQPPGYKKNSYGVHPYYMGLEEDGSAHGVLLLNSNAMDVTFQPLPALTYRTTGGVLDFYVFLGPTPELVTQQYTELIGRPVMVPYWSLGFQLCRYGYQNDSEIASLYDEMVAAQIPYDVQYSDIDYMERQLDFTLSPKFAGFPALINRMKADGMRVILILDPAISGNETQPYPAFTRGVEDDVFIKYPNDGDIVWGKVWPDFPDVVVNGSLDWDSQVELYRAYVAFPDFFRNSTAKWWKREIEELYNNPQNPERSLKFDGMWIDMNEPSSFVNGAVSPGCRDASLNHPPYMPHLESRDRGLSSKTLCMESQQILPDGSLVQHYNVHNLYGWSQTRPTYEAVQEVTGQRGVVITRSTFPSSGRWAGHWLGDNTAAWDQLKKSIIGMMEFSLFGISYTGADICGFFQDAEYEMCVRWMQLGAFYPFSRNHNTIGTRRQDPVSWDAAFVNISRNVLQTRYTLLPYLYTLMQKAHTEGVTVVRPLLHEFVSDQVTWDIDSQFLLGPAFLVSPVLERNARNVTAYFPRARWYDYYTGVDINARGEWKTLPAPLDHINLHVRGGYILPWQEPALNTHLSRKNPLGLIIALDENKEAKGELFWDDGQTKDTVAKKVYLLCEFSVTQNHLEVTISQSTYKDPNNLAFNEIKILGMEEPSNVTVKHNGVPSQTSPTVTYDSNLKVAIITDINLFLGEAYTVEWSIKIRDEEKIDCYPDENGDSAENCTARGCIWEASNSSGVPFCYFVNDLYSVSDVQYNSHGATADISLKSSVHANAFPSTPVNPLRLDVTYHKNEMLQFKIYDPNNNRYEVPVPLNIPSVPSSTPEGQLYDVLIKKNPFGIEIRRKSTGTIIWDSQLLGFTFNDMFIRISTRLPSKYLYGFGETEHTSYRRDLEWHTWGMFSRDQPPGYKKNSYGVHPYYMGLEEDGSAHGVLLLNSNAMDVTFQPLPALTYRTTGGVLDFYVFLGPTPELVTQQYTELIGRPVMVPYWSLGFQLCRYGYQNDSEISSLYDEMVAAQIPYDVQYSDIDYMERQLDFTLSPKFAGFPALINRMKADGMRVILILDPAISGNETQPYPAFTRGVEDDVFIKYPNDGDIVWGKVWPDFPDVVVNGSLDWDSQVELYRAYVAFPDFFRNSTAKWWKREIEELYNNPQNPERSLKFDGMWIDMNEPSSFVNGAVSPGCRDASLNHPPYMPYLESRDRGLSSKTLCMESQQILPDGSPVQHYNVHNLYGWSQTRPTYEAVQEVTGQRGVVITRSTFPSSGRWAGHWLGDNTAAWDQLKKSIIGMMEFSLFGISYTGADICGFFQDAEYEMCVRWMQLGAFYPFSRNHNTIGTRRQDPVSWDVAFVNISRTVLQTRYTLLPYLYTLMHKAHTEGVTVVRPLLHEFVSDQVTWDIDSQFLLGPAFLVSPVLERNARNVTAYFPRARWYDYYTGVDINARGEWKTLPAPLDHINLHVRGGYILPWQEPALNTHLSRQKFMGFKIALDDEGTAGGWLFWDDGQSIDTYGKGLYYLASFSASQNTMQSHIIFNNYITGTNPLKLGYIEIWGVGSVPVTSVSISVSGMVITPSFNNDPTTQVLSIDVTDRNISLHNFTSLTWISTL

Structures are written as SMILES.

A word on the IC50: it is the midpoint of a concentration-inhibition curve. Lower therefore signals greater potency.

For experiment [1], the target named is Glycogen debranching enzyme (Homo sapiens, UniProt P35573). Kind of experiment: Inhibition of glycogen glycogen de-branching enzyme by HPLC.
Experiment [2] deals with Lysosomal alpha-glucosidase (Homo sapiens, UniProt P10253). Kind of experiment: Inhibition of lysosomal alpha-glucosidase by HPLC.
In the next experiment the target is Maltase-glucoamylase (Homo sapiens, UniProt O43451). Kind of experiment: Inhibition of maltase by HPLC.

Compound `CCCCN1C[C@H](O)[C@@H](O)[C@H](O)[C@@H]1CO` came in with an IC50 in experiment [1] above 100 µM. As for `OC[C@H]1[C@@H](O)[C@H](O)[C@@H](O)CN1CCCCCOCC12CC3CC(CC(C3)C1)C2`, the IC50 in experiment [2] is above 1000 µM; at Maltase-glucoamylase, 1000 µM. In turn, `OC[C@@H]1[C@H](O)[C@H](O)[C@@H](O)CN1CCCCCOCC12CC3CC(CC(C3)C1)C2` displayed an IC50 at Maltase-glucoamylase of 15 µM. This counts as double-digit micromolar. In experiment [1], `CCCCN1C[C@H](O)[C@@H](O)[C@@H](O)[C@@H]1CO` yielded a 50% inhibitory concentration (IC50) above 100 µM.

Regarding `OC[C@H]1[C@H](O)[C@H](O)[C@@H](O)CN1CCCCCOCC12CC3CC(CC(C3)C1)C2`, the IC50 was 500 µM in experiment [2] and above 1000 µM on Maltase-glucoamylase. In the case of `OC[C@@H]1[C@@H](O)[C@H](O)[C@@H](O)CN1CCCCCOCC12CC3CC(CC(C3)C1)C2`, on Maltase-glucoamylase, it took 4 µM to reach half-maximal inhibition (IC50).
